Results taken from patent US8106168B2, “Metalloproteinase binding proteins” (Dyax Corp., priority 2005, dated 2012).

Tested on: BT747 breast cancer tumor fragments
Assay: BT747 breast tumor growth
Type: in vivo, mouse
Conditions: small initial tumor size groups; M0038-F01 10, 1 or 0.1 mg/kg Q2d IP; trastuzumab 20 mg/kg
Experimental: Fragments (approximately 1 mm^3) of BT747 breast cancer tumor fragments were implanted into the flanks of female HRLN CB.17 SCID mice. […] All groups were dosed by intraperitoneal (IP) injection. Tumor volume was measured biweekly.
Additionally, a seventh group of ten animals bearing large tumors (288 mm^3) was selected for testing with a combination therapy (M0038-F01, 10 mg/kg Q2d, starting at day 3 plus trastuzumab, 20 mg/kg biweekly, starting at day 4).

For “Trastuzumab: Her2-binding antibody [reference compound]”, the tumor growth was “inhibited tumor growth to an extent similar to 10 mg/kg M0038-F01”.
